Earlier results on one substance are cited in patent US20040229295A1, “Activated delivery of biomolecules using electromagnetic energy” (priority 1999, published 2004).

For the data set the following is noted: thermal denaturation.

Turning to human serum albumin, the “total change in free energy for unfolding” value was 10 kcal/mol.
